# From patent publication USRE37410E, “Controlled local delivery of chemotherapeutic agents for treating solid tumors” (priority 1999, dated 2001)
# System: 9L
# Assay: Intracranial local drug delivery by polymer implant in rat glioma model, median survival (Table 1 summary)
# Assay type: in vivo
structure (smiles),measurement,setting,value
O=P1(N(CCCl)CCCl)NC(O)CCO1 (stereo not shown),"Median survival in days, Rx group","p(CPP:SA) 20% load, Rx day 5, tumor 1 × 1 × 1 mm^3, controls 14, n = 8",44.5 days
same,% increase survival,"p(CPP:SA) 20% load, Rx day 5, controls 14",218%
same,% increase survival,"p(FAD:SA) 20% load, Rx day 3",450%
same,"Median survival in days, Rx group","p(FAD:SA) 20% load, Rx day 3, tumor 1 × 1 × 1 mm^3, controls 14, n = 10",77 days
